# Laboratory results published in patent US20110077263A1, “Methods and Compositions of Toll-Like Receptor (TLR) Agonists” (priority 2009, published 2011).
# Columns and labels:
# human LC = assay: activation of LC from healthy donors and CIN/HIV patients, planned; assay type: cell-based
# cells = settings: 30 μM used in the assays
# LC [1] = settings: Burns et al. 2000; Suzuki et al. 2000; cited from earlier work
# LC [2] = settings: allogenic MLR; Burns et al. 2000; cited from earlier work
smiles,measurement,setting,value
CC(C)Cn1cnc2c(N)nc3ccccc3c21 [imiquimod],phenotypic and functional activation of human LC from CIN/HIV patients,human LC,not
same,"concentration toxic to the cells, relative to that used in the assays",cells,2 -fold
same,phenotypic and functional activation of LC,LC [1],do not phenotypically but functionally activate LC
same,allostimulatory capacity of treated LC (T cell proliferation),LC [2],only modestly induced T cell proliferation
